pEC50: −log10 of the molar value.
Molecular target: human 5-HT2C receptor (Homo sapiens (Human), UniProt P28335)
Assay: FLIPR Ca2+ flux functional assay at 5-HT2C (Eurofins DiscoverX)
Assay type: cell-based
Conditions: for 5-HT2C % Act @ Max Conc.: at max concentration; for pEC50: read-out: 5-HT2C EC50

Chains of the proteins cited; added tags and fusions are not shown. Residues count along the entry.
UniProt P28335, 33-458 limits assumed: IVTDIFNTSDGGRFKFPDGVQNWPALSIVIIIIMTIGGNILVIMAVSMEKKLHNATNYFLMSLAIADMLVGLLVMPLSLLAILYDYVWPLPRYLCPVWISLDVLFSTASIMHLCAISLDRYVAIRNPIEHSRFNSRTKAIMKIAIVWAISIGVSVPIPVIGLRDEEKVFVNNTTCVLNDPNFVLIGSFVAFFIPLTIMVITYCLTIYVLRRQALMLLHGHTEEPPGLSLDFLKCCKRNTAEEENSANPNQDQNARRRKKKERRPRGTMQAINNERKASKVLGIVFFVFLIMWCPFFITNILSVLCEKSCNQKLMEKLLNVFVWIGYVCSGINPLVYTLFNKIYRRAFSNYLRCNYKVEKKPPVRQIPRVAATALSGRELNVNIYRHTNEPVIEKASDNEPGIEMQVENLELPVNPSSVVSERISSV

| SMILES | 5-HT2C % Act @ Max Conc. [%] | pEC50 |
| --- | --- | --- |
| COc1cc(CCCCF)c(OC)cc1CCN | 99.28 | 9.18 |
| COc1cc(CCCCC(F)(F)F)c(OC)cc1CCN | 82.10 | 8.19 |

Source: patent US20250270173A1, “PYRIDINE DERIVATIVES FOR TREATING PSYCHIATRIC DISORDERS” (GILGAMESH PHARMACEUTICALS, INC., priority 2022, published 2025)
